“And” between values parts separate entries of the source, which are not always exact repeats. Identical values can stand only once.
What was measured:
Mu-type opioid receptor = Mu-type opioid receptor (Homo sapiens, UniProt P35372); test: Human Mu-Opioid Peptide (hMOP) Receptor Binding Assay: The hMOP receptor binding assay was performed as homogeneous SPA-assay (scintillation proximity assay) using the assay buffer 50 mM TRIS-HCl (pH 7.4) supplemented with […] bovine serum albumin (Sigma-Aldrich Co. St. Louis. Mo.). The final assay volume (250 l/well) included 1 nM of [N-allyl-2.3-3H]naloxone as ligand (PerkinElmer Life Sc
Nociceptin receptor = Nociceptin receptor (Homo sapiens, UniProt P41146); test: Human Nociceptin/Orphanin FQ Peptide (hNOP) Receptor Binding Assay: The hNOP receptor binding assay was performed as homogeneous SPA-assay (scintillation proximity assay) using the assay buffer 50 mM TRIS-HCl. 10 mM MgCl2. 1 mM EDTA (pH 7.4). The final assay volume (250 μl/well) included 0.5 nM of [leucyl-3H]nociceptin as ligand (PerkinElmer Life Sciences. Inc. Boston. Mass. USA). and either test

Sequences of proteins named here, by UniProt entry; tags and fusion partners are left off. A change or cut given only in a name is not applied to a line headed by its entry.
UniProt P35372, whole entry, looked up: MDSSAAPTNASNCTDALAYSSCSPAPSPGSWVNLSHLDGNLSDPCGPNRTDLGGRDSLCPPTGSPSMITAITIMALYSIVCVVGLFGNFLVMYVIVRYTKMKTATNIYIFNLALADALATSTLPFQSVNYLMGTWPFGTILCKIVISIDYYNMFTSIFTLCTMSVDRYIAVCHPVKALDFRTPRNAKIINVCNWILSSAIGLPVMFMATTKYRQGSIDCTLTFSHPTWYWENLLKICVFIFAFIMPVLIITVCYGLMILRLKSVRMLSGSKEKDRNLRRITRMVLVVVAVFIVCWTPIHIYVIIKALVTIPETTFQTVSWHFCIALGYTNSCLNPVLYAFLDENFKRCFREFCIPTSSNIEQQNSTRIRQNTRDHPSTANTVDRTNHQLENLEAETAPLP
UniProt P41146: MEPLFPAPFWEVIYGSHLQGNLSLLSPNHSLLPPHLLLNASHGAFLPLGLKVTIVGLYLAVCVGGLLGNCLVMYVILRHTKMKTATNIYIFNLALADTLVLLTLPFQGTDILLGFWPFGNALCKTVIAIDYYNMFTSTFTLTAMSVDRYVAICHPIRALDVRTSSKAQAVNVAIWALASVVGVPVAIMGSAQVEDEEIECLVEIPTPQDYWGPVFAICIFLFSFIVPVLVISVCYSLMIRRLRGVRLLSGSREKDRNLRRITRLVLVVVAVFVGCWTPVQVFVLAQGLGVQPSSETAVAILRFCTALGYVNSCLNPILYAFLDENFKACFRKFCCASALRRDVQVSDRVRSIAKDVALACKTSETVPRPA

Row | Structure (SMILES) | Ki (Mu-type opioid receptor) | Ki (Nociceptin receptor)
1 | CC(C)c1cn(-c2ncc(N3C[C@]4(CC[C@](c5ccccc5)(N(C)C)CC4)NC3=O)cn2)nn1 | 4850 nM | 15 nM
2 | CN(C)[C@]1(c2ccccc2)CC[C@]2(CC1)CN(c1ccccc1CS(C)(=O)=O)C(=O)N2CC1CC1 | 115 nM | 15 nM
3 | CN(C)[C@]1(c2ccccc2)CC[C@]2(CC1)CN(c1cnc(N3CC(F)(F)C3)nc1)C(=O)N2 | 5340 nM | 13 nM
4 | CN(C)[C@]1(c2ccccc2)CC[C@]2(CC1)CN(c1cnc(N3CCNCC3)nc1)C(=O)N2 | 1090 nM | 5 nM
5 | CN[C@]1(c2ccccc2)CC[C@]2(CC1)CN(c1cnc(C#N)nc1)C(=O)N2CC1(C#N)CCC1 | 7.8 nM | 5 nM
6 | CN[C@]1(c2ccccc2)CC[C@]2(CC1)CN(c1cnc(C#N)nc1)C(=O)N2CCCOC | 655 nM | 70 nM
7 | CN1C(=O)N(c2cnc(C#N)nc2)C[C@]12CC[C@](c1cccc(F)c1)(N(C)C)CC2 | 10900 nM | 230 nM
8 | CN(C)[C@]1(c2ccccc2)CC[C@]2(CC1)CN(c1cnc(C(F)(F)F)nc1)C(=O)N2CC1CCC1 | 37.2 nM and 110 nM | 0.4 nM and 1 nM
9 | CN(C)[C@]1(c2ccccc2)CC[C@]2(CC1)CN(c1cnc(C(=O)NCCO)nc1)C(=O)N2 | 1690 nM | 59 nM
10 | CN(C)[C@]1(c2ccccc2)CC[C@]2(CC1)CN(c1cnccn1)C(=O)N2CC1CCC1 | 250 nM | 14 nM
11 | CN(C)[C@]1(c2ccccc2)CC[C@]2(CC1)CN(c1cnccc1C#N)C(=O)N2CC1CC1 | 465 nM | 18 nM
12 | CN(C)[C@]1(c2ccccc2)CC[C@]2(CC1)CN(c1ncncc1F)C(=O)N2 | 3620 nM | 105 nM
13 | CN(C)[C@]1(c2ccccc2)CC[C@]2(CC1)CN(c1ccccc1C(N)=O)C(=O)N2 | 6040 nM | 56 nM
14 | CN(C)[C@]1(c2ccccc2)CC[C@]2(CC1)CN(c1cnc(N3CCN(CC(N)=O)CC3)nc1)C(=O)N2 | 4610 nM | 8 nM
15 | Cn1nc(C(F)(F)F)cc1N1C[C@]2(CC[C@](c3cccs3)(N(C)C)CC2)NC1=O | 4280 nM | 13 nM
16 | CN[C@]1(c2ccccc2)CC[C@]2(CC1)CN(c1ncc(C#N)cn1)C(=O)N2CCCOC | 855 nM | 740 nM
17 | CN(CCO)c1nc2cc(N3C[C@]4(CC[C@](c5ccccc5)(N(C)C)CC4)NC3=O)ccc2[nH]1 | 560 nM | 48 nM
18 | CSc1cc(N2C[C@]3(CC[C@](c4ccccc4)(N(C)C)CC3)N(CC3CCC3)C2=O)ncn1 | 940 nM | 25 nM
19 | Cc1nc(N2CCS(=O)(=O)CC2)ncc1N1C[C@]2(CC[C@](c3ccccc3)(N(C)C)CC2)NC1=O | 4270 nM | 27 nM
20 | COCCN1C(=O)N(c2ccccc2)C[C@]12CC[C@](c1ccccc1)(N(C)C)CC2 | 215 nM | 94.5 nM
21 | CN(C)[C@]1(c2ccccc2)CC[C@]2(CC1)CN(c1cccc3ncccc13)C(=O)N2 | 1590 nM | 22 nM
22 | CN(C)[C@]1(c2ccccc2)CC[C@]2(CC1)CN(c1ccc(N3CCS(=O)(=O)CC3)nc1)C(=O)N2 | 4090 nM | 25 nM
23 | COc1cccnc1N1C[C@]2(CC[C@](c3ccccc3)(N(C)C)CC2)NC1=O | 3890 nM | 115 nM
24 | CN(C)[C@]1(c2ccccc2)CC[C@]2(CC1)CN(c1ccc3nonc3c1)C(=O)N2 | 3480 nM | 15 nM
25 | COC(=O)CN1CCN(c2ncc(N3C[C@]4(CC[C@](c5ccccc5)(N(C)C)CC4)NC3=O)cn2)CC1 | 7670 nM | 18 nM
26 | CN(C)[C@]1(c2ccccc2)CC[C@]2(CC1)CN(c1ccccc1C(N)=O)C(=O)N2CC1COC1 | 1380 nM | 92 nM
27 | Cc1cc(C(F)(F)F)ncc1N1C[C@]2(CC[C@](c3ccccc3)(N(C)C)CC2)N(CC2CC2)C1=O | 305 nM | 5 nM

Row | Structure (SMILES) | Ki (Mu-type opioid receptor) | Ki (Nociceptin receptor)
28 | Cc1nc(N2CCOCC2)ncc1N1C[C@]2(CC[C@](c3ccc(Cl)s3)(N(C)C)CC2)NC1=O | 3540 nM | 125 nM
29 | CN(C)[C@]1(c2ccccc2)CC[C@]2(CC1)CN(c1cnc(N3CCS(=O)(=O)CC3)nc1)C(=O)N2 | 6900 nM | 18 nM
30 | CN[C@]1(c2ccccc2)CC[C@]2(CC1)CN(c1cnc(C)nc1)C(=O)N2CC1(O)CCC1 | 130 nM | 24 nM
31 | CN(C)[C@]1(c2ccccc2)CC[C@]2(CC1)CN(c1cnc(-n3cc(C(F)(F)F)nn3)nc1)C(=O)N2 | 2580 nM | 12 nM
32 | CN[C@]1(c2ccccc2)CC[C@]2(CC1)CN(c1cnc(C(F)(F)F)cc1C)C(=O)N2CC1CC1 | 1030 nM | 12 nM
33 | CN(CCO)C(=O)c1ncc(N2C[C@]3(CC[C@](c4ccccc4)(N(C)C)CC3)NC2=O)cn1 | 3490 nM | 115 nM
34 | CN(C)[C@]1(c2ccccc2)CC[C@]2(CC1)CN(c1ccc3ncncc3c1)C(=O)N2 | 5410 nM | 102 nM
35 | COCCCN1C(=O)N(c2ncc(C#N)cn2)C[C@]12CC[C@](c1ccccc1)(N(C)C)CC2 | 1020 nM | 11 nM
36 | COC1(CCN2C(=O)N(c3ccccc3C(N)=O)C[C@]23CC[C@](c2ccccc2)(N(C)C)CC3)CCC1 | 19 nM | 8 nM
37 | CN(C)[C@]1(c2ccccc2)CC[C@]2(CC1)CN(c1cccc(N3CCCC3)c1)C(=O)N2CC1CCC1 | 1110 nM | 39 nM
38 | CN(C)[C@]1(c2ccccc2)CC[C@]2(CC1)CN(c1cnc(-n3ccc4cccnc43)nc1)C(=O)N2 | 7650 nM | 19 nM
39 | CN(C)[C@]1(c2ccccc2)CC[C@]2(CC1)CN(c1ccccc1OCC(N)=O)C(=O)N2 | 1390 nM | 38 nM
40 | CN(C)[C@]1(c2ccccc2)CC[C@]2(CC1)CN(c1cnc(C#N)nc1)C(=O)N2CC1CCC1 | 120 nM | 0.3 nM
41 | Cc1cc(C#N)cnc1N1C[C@]2(CC[C@](c3ccccc3)(N(C)C)CC2)NC1=O | 7020 nM | 51 nM
42 | CN(C)[C@]1(c2ccccc2)CC[C@]2(CC1)CN(c1cnc(-c3ccccc3)nc1)C(=O)N2 | 5580 nM | 13 nM
43 | CN(C)[C@]1(c2ccccc2)CC[C@]2(CC1)CN(c1cccc(F)c1)C(=O)N2 | 800 nM | 66 nM
44 | CN(C)[C@]1(c2ccccc2)CC[C@]2(CC1)CN(c1cccnn1)C(=O)N2 | 1050 nM | 245 nM
45 | Cc1nc(N2CCOCC2)ncc1N1C[C@]2(CC[C@](c3cccs3)(N(C)C)CC2)NC1=O | 1950 nM | 11 nM
46 | Cc1nc(N2CCOCC2)ncc1N1C[C@]2(CC[C@](c3ccccc3)(N(C)C)CC2)NC1=O | 4580 nM | 14 nM
47 | CN[C@]1(c2ccccc2)CC[C@]2(CC1)CN(c1cnc(C#N)nc1)C(=O)N2CCOC | 705 nM | 85.8 nM
48 | CN[C@]1(c2ccccc2)CC[C@]2(CC1)CN(c1cnc(N3CCOCC3)nc1)C(=O)N2CC1(O)CCC1 | 19 nM | 13 nM
49 | Cc1cc(C(F)(F)F)ncc1N1C[C@]2(CC[C@](c3ccc(Cl)s3)(N(C)C)CC2)NC1=O | 3110 nM | 51 nM
50 | Cc1ncc(N2C[C@]3(CC[C@](c4ccccc4)(N(C)C)CC3)NC2=O)c(N2CCC2)n1 | 5430 nM | 255 nM
51 | COCCOCCOCCOCCNC(=O)c1ncc(N2C[C@]3(CC[C@](c4ccccc4)(N(C)C)CC3)NC2=O)cn1 | 6150 nM | 155 nM
52 | CN(CC(N)=O)c1ncc(N2C[C@]3(CC[C@](c4ccccc4)(N(C)C)CC3)NC2=O)cn1 | 2580 nM | 19 nM
53 | CN(C)[C@]1(c2ccccc2)CC[C@]2(CC1)CN(c1ccc(C(N)=O)nc1)C(=O)N2 | 5330 nM | 14 nM

— ChEMBL document CHEMBL5728057, “3-((hetero-)aryl)-8-amino-2-oxo-1,3-diaza-spiro-[4.5]-decane derivatives” (2020)
